# Measurements published in patent publication US9706755B2, “Controlled odor mimic permeation system” (dated 2017).
# Tests used:
# [1] = system: trained and certified explosives detection canines; assay: Canine field trials, active odor determination (odor line-up of hide boxes)
# [2] = system: explosives detection canines; assay: Overall / individual canine performance (alerts plus interests over all hides; real explosives, odor chemicals, NESTT silica and petrolatum aids; Tables 69-72); details: for total number of alerts or interest / total number of hides: interest reported as alert; for overall canine population response to odor chemical (alert/interest): Table 70, all field tests pooled, canines 120, 140, 141 discounted; for Total, alerts or interest / hides / Total, alerts or interest as percent of hides: all canines 101-144; for Adjusted Total, alerts or interest / hides / Adjusted Total, alerts or interest as percent of hides: removing canines 120, 140 & 141
# [3] = system: explosives detection canines; assay: First field test of gauze mimic aids, COMPS kits (Table 94); details: 100 μl at 10% w/v Acetonitrile on Gauze in 2 mil LDPE, Electrical Box
# [4] = Dog Number 120 (20/28 false alerts, discounted from adjusted totals)
# [5] = Dog Number 140 (4/6 false alerts, discounted from adjusted totals)
# [6] = Dog Number 141 (4/6 false alerts, discounted from adjusted totals)
Structure (SMILES),"interests (canines showing interest / canines tested) ([1]; Table 56, 100 ug)","interests (canines showing interest / canines tested) ([1]; Table 57, 5.0 mg)",total number of alerts or interest / total number of hides ([2]; Dog Number 101),total number of alerts or interest / total number of hides ([2]; Dog Number 102),total number of alerts or interest / total number of hides ([2]; Dog Number 103),total number of alerts or interest / total number of hides ([2]; Dog Number 104),total number of alerts or interest / total number of hides ([2]; Dog Number 106),total number of alerts or interest / total number of hides ([2]; Dog Number 108),total number of alerts or interest / total number of hides ([2]; Dog Number 109),total number of alerts or interest / total number of hides ([2]; Dog Number 110),total number of alerts or interest / total number of hides ([2]; Dog Number 113),total number of alerts or interest / total number of hides ([2]; Dog Number 116),total number of alerts or interest / total number of hides ([2]; Dog Number 117),total number of alerts or interest / total number of hides ([2]; Dog Number 118),total number of alerts or interest / total number of hides ([2]; Dog Number 119),"total number of alerts or interest / total number of hides [2, 4]","total number of alerts or interest / total number of hides [2, 5]","total number of alerts or interest / total number of hides [2, 6]",total number of alerts or interest / total number of hides ([2]; Dog Number 142),total number of alerts or interest / total number of hides ([2]; Dog Number 144),also measured
CC(C)([N+](=O)[O-])C(C)(C)[N+](=O)[O-],1/7,0/9,0/1,1/1,0/2,0/1,0/1,0/2,0/4,0/1,0/2,0/3,0/2,1/4,0/3,4/4,1/1,1/1,1/1,0/1,"interests (canines showing interest / canines tested) ([1]; Table 55, 5.0 mg): 2/11; total number of alerts or interest / total number of hides ([2]; Dog Number 111): 0/1; total number of alerts or interest / total number of hides ([2]; Dog Number 112): 0/1; total number of alerts or interest / total number of hides ([2]; Dog Number 121): 1/1; total number of alerts or interest / total number of hides ([2]; Dog Number 124): 1/1; total number of alerts or interest / total number of hides ([2]; Dog Number 126): 0/2; total number of alerts or interest / total number of hides ([2]; Dog Number 127): 0/2; total number of alerts or interest / total number of hides ([2]; Dog Number 129): 0/1; total number of alerts or interest / total number of hides ([2]; Dog Number 133): 0/1; overall canine population response to odor chemical (alert/interest) [2]: 12.5%; Total, alerts or interest / hides [2]: 11/45; Total, alerts or interest as percent of hides [2]: 24.4%; Adjusted Total, alerts or interest / hides [2]: 5/39; Adjusted Total, alerts or interest as percent of hides [2]: 12.8%"
c1ccc(Nc2ccccc2)cc1,1/7,1/9,0/1,1/1,0/1,0/1,0/1,1/1,0/1,0/1,0/2,0/2,0/1,1/2,1/2,3/3,1/1,1/1,1/1,1/1,"Interest (dog numbers) [3]: 143; alerts (canines alerting / canines tested) ([1]; Table 56, 100 ug): 1/7; % Alert ([1]; Table 56, Quart Can, 100 μl at 1000 ppm Acetonitrile on Cotton in Open Vial, 7 canines): 14.3%; total number of alerts or interest / total number of hides ([2]; Dog Number 143): 1/1; overall canine population response to odor chemical (alert/interest) [2]: 35.0%; Total, alerts or interest / hides [2]: 12/25; Total, alerts or interest as percent of hides [2]: 48.0%; Adjusted Total, alerts or interest / hides [2]: 7/20; Adjusted Total, alerts or interest as percent of hides [2]: 35.0%"
